Columns and labels:
[1] = target: T1, human TNFα (Tumor Necrosis Factor-alpha), soluble (human, UniProt P01375 77-233); assay: KinExA, TNFα counted as three monomers
T1 construct: Recombinant (R&D 210-TA/CF) in screens; biotinylated in the limited antigen assay; also called hTNFα; H-TNFα
Procedure: (§1) The kinetic measurements of the anti-TNFα antibodies were evaluated using KinExA® and BIACORE® technologies. The KinExA® method involves solution-based determination of formal affinity measurements at equilibrium. To measure the binding kinetics of each human anti-TNFα antibody, two experiments in replicates of three were performed. In both experiments a known concentration of antigen was titrated and a different antibody concentration was added to each antigen titration and allowed to reach binding equilibrium. […] The results were analyzed by dual curve analysis. […] In addition, to negate the possibility of avidity effects, Fab fragments were generated by papain cleavage and the kinetic analysis was repeated (see Table 24).

The chains behind the UniProt entries cited, without tags or fusion partners. Residues count along the entry.
UniProt P01375, 77-233: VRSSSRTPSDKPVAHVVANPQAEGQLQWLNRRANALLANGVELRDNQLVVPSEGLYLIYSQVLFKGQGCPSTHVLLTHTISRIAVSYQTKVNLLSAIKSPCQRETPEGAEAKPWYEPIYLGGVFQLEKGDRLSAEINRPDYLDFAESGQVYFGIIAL

[2] = target: T1, human TNFα (Tumor Necrosis …); assay: cell-based or functional assay
[3] = target: T1, human TNFα (Tumor Necrosis …); assay: KinExA, TNFα counted as one trimer
Procedure: as §1

[4] = target: T1, human TNFα (Tumor Necrosis …); assay: cell-based or functional assay; remark: listed apart in the source
[5] = target: T1, human TNFα (Tumor Necrosis …); assay: cell-based or functional assay; remark: listed apart in the source

B1: Infliximab (antibody, V domains shown)
VH: EVKLEESGGGLVQPGGSMKLSCVASGFIFSNHWMNWVRQSPEKGLEWVAEIRSKSINSATHYAESVKGRFTISRDDSKSAVYLQMTDLRTEDTGVYYCSRNYYGSTYDYWGQGTTLTVSS
VL: DILLTQSPAILSVSPGERVSFSCRASQFVGSSIHWYQQRTNGSPRLLIKYASESMSGIPSRFSGSGSGTDFTLSINTVESEDIADYYCQQSHSWPFTFGSGTNLEVKR
- Kd [1]: 0.0141 nM
- Kd (M) High [1]: 2.07e-11 M
- Kd (M) Low [1]: 8.78e-12 M
- Whole Blood IC50, TNFα-induced IL-8 production [2]: 0.546 nM
- Kd [3]: 0.0047 nM
- Kd (M) High [3]: 6.9e-12 M
- Kd (M) Low [3]: 2.93e-12 M
- In vivo Potency (IC50), ALT, hTNFα/D-GalN hepatic injury in mice [4]: 41 nM
- In vivo Potency (IC50), human TNFα-induced IL-6 in mice [4]: 43 nM
- IC50 1 hr Pre-incubation, TNF induced apoptosis in MCF-7 cells [5]: 0.0324 nM
- IC50 18 hr Pre-incubation, TNF induced apoptosis in MCF-7 cells [5]: 0.0317 nM

— patent US20050049402A1 (Amgen, published 2005)
